Assay results from patent publication US20240327387A1, “TRIAZINE DERIVATIVES FOR THE TREATMENT OF TUMOURS AND NEURODEGENERATIVE DISORDERS” (UNIVERSITA' DEGLI STUDI DI MILANO, priority 2021, published 2024).

The chains behind the UniProt entries cited, without tags or fusion partners. Residues count along the entry.
UniProt Q9NZQ7, 19-238 limits assumed: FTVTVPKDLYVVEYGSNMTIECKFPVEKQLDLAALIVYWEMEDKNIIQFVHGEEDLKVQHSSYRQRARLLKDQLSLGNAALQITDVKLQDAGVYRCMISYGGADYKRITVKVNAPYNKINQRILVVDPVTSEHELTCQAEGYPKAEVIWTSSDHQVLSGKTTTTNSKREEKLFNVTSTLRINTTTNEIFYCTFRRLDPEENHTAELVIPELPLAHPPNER

Target: hPD1/hPD-L1 interaction (Homo sapiens (Human), UniProt Q9NZQ7)
Test: HTRF assay of PD-1/PD-L1 interaction
Format: binding
Details: Table 1

| SMILES | IC50 [µM] |
| --- | --- |
| CC(=O)NCCNc1nc(OCc2cccc(C#N)c2)nc(OCc2cccc(-c3ccccc3)c2C)n1 | > 5 |
| COC(=O)[C@H](Cc1c[nH]cn1)Nc1nc(OCc2cccc(C#N)c2)nc(OCc2cccc(-c3ccccc3)c2C)n1 | > 5 |
| Cc1c(COc2nc(N[C@@H](Cc3c[nH]cn3)C(=O)O)nc(OCc3cccc(C#N)c3)n2)cccc1-c1ccccc1 | > 5 |
| CC(=O)NCCNc1nc(C)nc(OCc2cccc(-c3ccccc3)c2C)n1 | > 5 |
